In US10087225B2, “Formulation of MK2 inhibitor peptides” (MOERAE MATRIX, INC., priority 2015, dated 2018) one finds activity data, which are given here for one compound.

Chains of the proteins cited; added tags and fusions are not shown. Lines headed by an entry give the natural chain unless they say otherwise; changes in a name come on top. Residues count along the entry.
UniProt Q07912: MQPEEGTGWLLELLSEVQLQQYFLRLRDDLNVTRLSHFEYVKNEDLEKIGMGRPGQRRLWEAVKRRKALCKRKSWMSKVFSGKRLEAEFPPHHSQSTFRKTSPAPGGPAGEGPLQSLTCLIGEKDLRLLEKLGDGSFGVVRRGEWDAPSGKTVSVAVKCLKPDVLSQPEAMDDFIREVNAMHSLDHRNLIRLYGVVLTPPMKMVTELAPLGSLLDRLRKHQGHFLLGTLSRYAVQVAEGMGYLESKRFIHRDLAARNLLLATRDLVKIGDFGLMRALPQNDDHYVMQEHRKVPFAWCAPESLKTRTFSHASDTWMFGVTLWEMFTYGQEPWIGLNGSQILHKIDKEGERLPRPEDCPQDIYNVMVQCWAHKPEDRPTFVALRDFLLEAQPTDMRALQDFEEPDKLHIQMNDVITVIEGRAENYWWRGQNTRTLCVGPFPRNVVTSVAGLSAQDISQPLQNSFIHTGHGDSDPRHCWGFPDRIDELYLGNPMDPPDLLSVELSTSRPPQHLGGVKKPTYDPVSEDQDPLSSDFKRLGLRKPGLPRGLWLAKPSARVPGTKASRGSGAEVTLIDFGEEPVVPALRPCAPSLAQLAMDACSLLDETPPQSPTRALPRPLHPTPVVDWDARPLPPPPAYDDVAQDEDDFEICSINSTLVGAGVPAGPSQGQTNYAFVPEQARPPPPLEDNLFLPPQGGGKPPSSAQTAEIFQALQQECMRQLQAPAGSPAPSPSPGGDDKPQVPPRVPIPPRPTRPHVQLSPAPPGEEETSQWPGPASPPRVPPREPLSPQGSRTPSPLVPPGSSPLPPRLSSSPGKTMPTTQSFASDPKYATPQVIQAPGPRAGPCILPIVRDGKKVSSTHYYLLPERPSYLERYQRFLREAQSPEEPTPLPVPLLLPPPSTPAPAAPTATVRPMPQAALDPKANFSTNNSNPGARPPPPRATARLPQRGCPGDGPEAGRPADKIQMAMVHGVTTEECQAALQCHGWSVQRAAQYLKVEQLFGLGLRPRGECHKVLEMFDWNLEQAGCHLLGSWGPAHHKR
UniProt P54646: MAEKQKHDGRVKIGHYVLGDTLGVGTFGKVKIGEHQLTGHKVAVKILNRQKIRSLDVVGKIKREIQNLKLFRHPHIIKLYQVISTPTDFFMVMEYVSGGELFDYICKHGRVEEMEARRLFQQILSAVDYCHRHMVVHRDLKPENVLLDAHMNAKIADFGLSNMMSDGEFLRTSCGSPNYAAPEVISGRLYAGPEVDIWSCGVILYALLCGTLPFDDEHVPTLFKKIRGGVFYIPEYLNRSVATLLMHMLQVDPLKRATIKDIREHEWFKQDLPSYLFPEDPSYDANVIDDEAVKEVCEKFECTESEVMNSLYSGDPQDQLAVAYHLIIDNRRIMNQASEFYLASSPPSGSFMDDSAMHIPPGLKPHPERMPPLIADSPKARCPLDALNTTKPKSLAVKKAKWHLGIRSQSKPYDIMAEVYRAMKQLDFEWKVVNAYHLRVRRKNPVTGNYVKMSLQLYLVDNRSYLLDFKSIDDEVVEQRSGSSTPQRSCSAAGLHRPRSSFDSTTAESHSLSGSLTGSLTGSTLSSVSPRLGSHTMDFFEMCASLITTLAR
UniProt P19784, whole entry: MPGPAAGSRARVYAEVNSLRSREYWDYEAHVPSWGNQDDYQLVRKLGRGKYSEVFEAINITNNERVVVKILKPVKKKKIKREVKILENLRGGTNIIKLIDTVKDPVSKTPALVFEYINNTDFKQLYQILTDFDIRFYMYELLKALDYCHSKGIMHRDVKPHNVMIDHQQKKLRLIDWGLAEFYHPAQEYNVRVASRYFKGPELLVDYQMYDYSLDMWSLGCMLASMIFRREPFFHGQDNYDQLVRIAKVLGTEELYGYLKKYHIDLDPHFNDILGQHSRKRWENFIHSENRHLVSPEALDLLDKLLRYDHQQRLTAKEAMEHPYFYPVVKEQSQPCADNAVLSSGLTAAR
UniProt P54753, 34-998: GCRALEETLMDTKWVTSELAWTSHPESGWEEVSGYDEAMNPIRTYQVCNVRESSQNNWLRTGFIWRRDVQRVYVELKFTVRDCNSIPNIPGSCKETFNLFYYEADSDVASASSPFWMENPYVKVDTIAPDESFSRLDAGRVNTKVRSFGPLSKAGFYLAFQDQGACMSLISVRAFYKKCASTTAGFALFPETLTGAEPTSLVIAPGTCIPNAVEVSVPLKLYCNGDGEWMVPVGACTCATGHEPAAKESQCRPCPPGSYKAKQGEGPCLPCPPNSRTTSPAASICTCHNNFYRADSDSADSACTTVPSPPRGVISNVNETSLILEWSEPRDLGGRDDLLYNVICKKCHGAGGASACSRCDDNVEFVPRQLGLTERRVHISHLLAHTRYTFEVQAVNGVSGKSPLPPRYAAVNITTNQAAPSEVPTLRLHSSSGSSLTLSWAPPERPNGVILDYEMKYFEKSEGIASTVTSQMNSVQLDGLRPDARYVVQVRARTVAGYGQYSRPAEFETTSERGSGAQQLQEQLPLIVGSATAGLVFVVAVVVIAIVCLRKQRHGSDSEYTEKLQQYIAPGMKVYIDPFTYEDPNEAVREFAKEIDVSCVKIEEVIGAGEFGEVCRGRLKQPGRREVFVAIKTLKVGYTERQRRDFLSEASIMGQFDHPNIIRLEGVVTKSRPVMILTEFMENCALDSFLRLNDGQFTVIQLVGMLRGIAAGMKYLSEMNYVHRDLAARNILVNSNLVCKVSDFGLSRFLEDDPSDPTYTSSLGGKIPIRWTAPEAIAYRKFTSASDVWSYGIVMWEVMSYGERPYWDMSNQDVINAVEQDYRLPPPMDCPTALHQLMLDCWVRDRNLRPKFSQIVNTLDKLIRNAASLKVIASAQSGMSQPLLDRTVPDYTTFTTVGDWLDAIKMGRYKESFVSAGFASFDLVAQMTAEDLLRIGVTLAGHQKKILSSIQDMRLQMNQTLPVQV
UniProt Q8WTQ7: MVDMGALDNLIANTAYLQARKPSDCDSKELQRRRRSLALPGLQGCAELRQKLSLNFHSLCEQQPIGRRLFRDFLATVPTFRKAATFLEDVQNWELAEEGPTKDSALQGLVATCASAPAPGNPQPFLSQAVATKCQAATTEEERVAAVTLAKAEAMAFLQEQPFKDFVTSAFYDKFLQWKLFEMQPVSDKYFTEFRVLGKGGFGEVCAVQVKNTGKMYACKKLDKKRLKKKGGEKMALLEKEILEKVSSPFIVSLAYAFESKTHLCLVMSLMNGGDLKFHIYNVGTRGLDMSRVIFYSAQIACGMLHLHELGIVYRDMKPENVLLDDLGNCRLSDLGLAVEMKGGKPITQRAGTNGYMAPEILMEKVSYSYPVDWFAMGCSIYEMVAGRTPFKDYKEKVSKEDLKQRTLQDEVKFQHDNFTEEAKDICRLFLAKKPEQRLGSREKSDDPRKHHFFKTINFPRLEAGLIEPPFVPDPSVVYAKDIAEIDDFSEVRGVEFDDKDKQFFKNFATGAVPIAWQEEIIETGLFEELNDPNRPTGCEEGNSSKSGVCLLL
UniProt Q9HC98: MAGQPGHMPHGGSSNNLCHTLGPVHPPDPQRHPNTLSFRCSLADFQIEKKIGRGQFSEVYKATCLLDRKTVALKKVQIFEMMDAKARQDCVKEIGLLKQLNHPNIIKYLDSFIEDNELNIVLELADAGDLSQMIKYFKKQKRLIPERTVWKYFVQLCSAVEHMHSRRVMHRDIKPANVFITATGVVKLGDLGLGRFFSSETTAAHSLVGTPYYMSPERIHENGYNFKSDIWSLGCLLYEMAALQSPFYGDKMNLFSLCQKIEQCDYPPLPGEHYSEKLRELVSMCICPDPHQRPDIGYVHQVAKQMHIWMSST
UniProt P31749: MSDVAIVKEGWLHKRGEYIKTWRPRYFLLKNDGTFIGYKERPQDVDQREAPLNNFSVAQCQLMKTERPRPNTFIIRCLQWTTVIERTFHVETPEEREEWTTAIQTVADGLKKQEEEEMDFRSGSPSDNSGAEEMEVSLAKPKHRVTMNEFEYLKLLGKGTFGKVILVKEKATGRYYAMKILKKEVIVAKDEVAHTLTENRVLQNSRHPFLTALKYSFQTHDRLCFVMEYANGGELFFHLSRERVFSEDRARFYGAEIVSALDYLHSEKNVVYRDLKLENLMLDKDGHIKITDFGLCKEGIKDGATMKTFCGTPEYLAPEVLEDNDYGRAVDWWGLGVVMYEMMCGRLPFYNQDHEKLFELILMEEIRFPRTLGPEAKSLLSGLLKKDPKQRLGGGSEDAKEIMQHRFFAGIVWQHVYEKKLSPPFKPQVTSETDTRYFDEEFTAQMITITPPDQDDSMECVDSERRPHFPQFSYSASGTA
UniProt O43353, whole entry: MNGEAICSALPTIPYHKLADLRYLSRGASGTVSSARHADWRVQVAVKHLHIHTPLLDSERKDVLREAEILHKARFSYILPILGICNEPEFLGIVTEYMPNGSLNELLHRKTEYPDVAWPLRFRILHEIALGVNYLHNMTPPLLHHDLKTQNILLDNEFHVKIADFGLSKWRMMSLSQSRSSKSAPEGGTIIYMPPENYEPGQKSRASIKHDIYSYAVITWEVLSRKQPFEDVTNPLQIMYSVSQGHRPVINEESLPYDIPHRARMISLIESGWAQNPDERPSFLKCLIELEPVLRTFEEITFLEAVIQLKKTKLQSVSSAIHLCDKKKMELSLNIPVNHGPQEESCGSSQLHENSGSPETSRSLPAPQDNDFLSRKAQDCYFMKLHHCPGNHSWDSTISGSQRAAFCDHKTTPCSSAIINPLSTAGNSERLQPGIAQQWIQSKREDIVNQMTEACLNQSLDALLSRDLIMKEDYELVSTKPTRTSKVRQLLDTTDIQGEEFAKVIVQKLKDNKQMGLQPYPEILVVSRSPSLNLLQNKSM
UniProt P51812, whole entry: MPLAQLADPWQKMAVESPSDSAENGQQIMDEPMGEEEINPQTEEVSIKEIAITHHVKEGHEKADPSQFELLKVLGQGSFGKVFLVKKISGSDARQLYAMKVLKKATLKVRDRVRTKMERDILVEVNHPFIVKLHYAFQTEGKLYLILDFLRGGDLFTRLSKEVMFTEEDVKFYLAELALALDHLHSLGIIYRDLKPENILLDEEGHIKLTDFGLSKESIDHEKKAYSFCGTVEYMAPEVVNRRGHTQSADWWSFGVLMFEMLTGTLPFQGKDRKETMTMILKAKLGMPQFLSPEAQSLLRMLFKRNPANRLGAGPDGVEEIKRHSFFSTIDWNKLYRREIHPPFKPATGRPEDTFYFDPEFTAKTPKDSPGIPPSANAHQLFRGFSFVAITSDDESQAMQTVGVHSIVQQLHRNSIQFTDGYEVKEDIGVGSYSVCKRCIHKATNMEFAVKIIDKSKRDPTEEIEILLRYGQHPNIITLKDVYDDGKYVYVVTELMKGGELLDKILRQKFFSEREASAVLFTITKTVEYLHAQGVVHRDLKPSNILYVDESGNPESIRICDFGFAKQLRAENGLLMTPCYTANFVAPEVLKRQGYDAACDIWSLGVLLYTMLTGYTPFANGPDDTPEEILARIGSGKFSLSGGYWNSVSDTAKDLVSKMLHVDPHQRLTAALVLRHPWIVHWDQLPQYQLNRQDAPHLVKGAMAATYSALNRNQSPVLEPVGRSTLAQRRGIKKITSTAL
UniProt P07947, whole entry: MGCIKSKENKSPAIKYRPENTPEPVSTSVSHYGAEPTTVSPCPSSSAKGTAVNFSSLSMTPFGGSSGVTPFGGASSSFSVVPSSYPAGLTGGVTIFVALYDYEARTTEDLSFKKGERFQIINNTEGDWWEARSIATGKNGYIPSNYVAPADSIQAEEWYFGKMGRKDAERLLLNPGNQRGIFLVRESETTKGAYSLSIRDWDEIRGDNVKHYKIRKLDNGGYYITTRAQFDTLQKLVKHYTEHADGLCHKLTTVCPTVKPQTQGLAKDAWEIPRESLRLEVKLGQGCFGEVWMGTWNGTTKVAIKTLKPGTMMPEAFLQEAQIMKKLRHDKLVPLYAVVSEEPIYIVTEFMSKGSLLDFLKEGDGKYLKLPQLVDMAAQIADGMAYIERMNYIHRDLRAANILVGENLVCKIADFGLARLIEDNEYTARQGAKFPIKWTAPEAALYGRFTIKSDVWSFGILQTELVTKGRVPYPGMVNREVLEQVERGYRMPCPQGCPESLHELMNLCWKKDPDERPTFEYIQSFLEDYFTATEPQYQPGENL

Holding throughout (assay): Kinase Profiling Assay
Common to all, as to type: biochemical

Test [1] concerns the target ACK1(h) (Homo sapiens, UniProt Q07912).
Test [2] has as its target AMPKa2(h) (Homo sapiens, UniProt P54646).
Test [3] concerns the target CK2α2(h) (Homo sapiens, UniProt P19784).
Test [4] addresses eEF-2K(h) (Homo sapiens, UniProt O00418).
Test [5] deals with EphB3(h) (Homo sapiens, UniProt P54753).
Test [6] has as its target GRK7(h) (Homo sapiens, UniProt Q8WTQ7).
Test [7] deals with JNK2α2(h) (Homo sapiens, UniProt P45984).
The target in test [8] is Met(h) (Homo sapiens, UniProt P08581).
For test [9], the target named is mTOR/FKBP12(h) (Homo sapiens, UniProt P42345).
Test [10] addresses NEK6(h) (Homo sapiens, UniProt Q9HC98).
Test [11] deals with PKBα(h) (Homo sapiens, UniProt P31749).
Test [12] deals with RIPK2(h) (Homo sapiens, UniProt O43353).
Test [13] addresses Rsk2(h) (Homo sapiens, UniProt P51812).
Test [14] has as its target Yes(h) (Homo sapiens, UniProt P07947).

Turning to `CC(C)C[C@H](NC(=O)[C@H](C)NC(=O)[C@H](CCCCN)NC(=O)[C@H](C)NC(=O)[C@H](CCCNC(=N)N)NC(=O)[C@H](C)NC(=O)[C@H](CCC(N)=O)NC(=O)[C@H](CCCNC(=N)N)NC(=O)[C@H](C)NC(=O)[C@H](C)NC(=O)[C@H](C)NC(=O)[C@H](CCCNC(=N)N)NC(=O)[C@H](C)NC(=O)[C@@H](N)Cc1ccc(O)cc1)C(=O)N[C@@H](C)C(=O)N[C@@H](CCCNC(=N)N)C(=O)N[C@@H](CCC(N)=O)C(=O)N[C@@H](CC(C)C)C(=O)NCC(=O)N[C@H](C(=O)N[C@@H](C)C(=O)N[C@@H](C)C(=O)O)C(C)C` [MMI-0100], the activity at 100 µM in test [1] was determined as 106%; in test [2], 121%; in [3], 104%; in test [4], 113%; in test [5], 109%; in test [6], 111%. The activity at 100 µM is 114% in [7]; 104% in test [8]; 117% in test [9]; 109% in test [10]; 140% in [11]; 92% in test [12]. In addition, the activity at 100 µM in test [13] was determined as 65%; in test [14] it was 49%.
